Test results: PMC3483449 (FEBS letters, 2012)

Target: T1, mouse aminoacylase 3 (mouse, UniProt Q91XE4 1-318)
T1 sequence (looked up): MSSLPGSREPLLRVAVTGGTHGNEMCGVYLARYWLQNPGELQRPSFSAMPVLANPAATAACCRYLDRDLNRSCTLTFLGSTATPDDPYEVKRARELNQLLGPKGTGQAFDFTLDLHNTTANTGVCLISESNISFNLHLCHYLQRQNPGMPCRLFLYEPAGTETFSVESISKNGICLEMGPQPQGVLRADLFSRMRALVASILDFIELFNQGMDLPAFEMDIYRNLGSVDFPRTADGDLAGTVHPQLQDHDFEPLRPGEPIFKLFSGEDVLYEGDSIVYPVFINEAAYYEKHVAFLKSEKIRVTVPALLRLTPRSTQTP
Assay: SPR

B1: hepatitis C virus core protein (1-177 a.a.) (natural protein)
chain: MSTLPKPQRKTKRNTIRRPQDVKFPGGGQIVGGVYLLPRRGPRLGVRATRKTSERSQPRGRRQPIPKARRPEGRTWAQPGYPWPLYGNEGCGWAGWLLSPRGSRPSWGPTDPRRRSRNLGKVIDTLTCGFADLMGYIPLVGAPLGGAARALAHGVRVLEDGVNYATGNLPGCSFSIF
Kd: 10.1 ± 4.3 µM
